Antibody variant affinities, Ab-14 heavy chain, assay 1

Reference: Engelhart et al. 2022, doi:10.1038/s41597-022-01779-4. File: FLAb, binding data.

Target peptide (SARS-CoV-2 spike, HR2 region): PDVDLGDISGINAS

Parent scFv Ab-14: VH joined to VL by a 15-residue (Gly4Ser)3 linker. Changes lie in the heavy chain CDRs alone.
VH: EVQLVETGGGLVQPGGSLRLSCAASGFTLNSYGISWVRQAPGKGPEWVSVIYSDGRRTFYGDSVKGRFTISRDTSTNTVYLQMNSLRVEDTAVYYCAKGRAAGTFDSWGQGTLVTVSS
VL: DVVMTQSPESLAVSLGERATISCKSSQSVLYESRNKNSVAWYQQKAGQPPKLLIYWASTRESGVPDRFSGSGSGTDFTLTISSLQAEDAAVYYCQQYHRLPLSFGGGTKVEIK

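The starting antibody came from a phage panning campaign against this peptide. AAYL49 was designed without a model: most single CDR substitutions and a random sample of double and triple ones. The assay is AlphaSeq: two haploid yeast populations carry antibody and antigen on their surface. After mating in shaken culture at 30 °C for 16 h, diploids were selected and their barcode pairs sequenced. Scores were corrected for input abundance and mapped to Kd with protein pairs of known affinity run in the same pool. The assay was run in three technical replicates.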

Positions count from residue 1 of the parent VH; S53W puts W in place of S. Affinities are written as log10 Kd with Kd in nM; a lower number is a better binder. An entry "ND" has no value in the source: the pair was not observed among the diploids in that replicate. This suggests poor binding but is not conclusive. For reference, the parent read 0.65 as the reference entry and 4.11 (one replicate of three) as a member of this library. Empty control strains, which show no peptide, gave a signal in 15% of pairings with library AAYL49; the median was 4.06 and 95% of these signals were weaker than 2.83. No background was subtracted. The control count says in how many pairings with the empty strains this scFv gave a signal, with their mean in brackets.

changes	replicates, log10 nM	signal with controls
S53W G61A S63D	1.51 / 1.48 / 1.65	1 of 9 (3.58)
S53G V64H K65N	ND / ND / 5.98	2 of 9 (4.72)
S31I G61W S107D	5.83 / ND / ND	2 of 9 (4.51)
S31N T104G	3.56 / ND / 3.58	1 of 9 (3.81)
G55T T104V F105W	3.79 / 5.21 / 5.40	6 of 9 (4.26)
F27M G55H F105M	ND / 2.88 / ND	1 of 9 (3.19)
A102P T104A D106R	1.84 / 1.66 / 2.45	2 of 9 (3.52)
I51E Y60N	ND / ND / ND	0 of 9
Y32I G61H R100I	ND / ND / ND	1 of 9 (1.99)
R56A V64N G103S	ND / 3.98 / ND	1 of 9 (2.98)
Y52D V64D A101I	ND / ND / ND	0 of 9
G26R F59H G61T	3.44 / 1.88 / 1.70	0 of 9
D54T S107A	ND / 3.98 / ND	4 of 9 (3.59)
S53N D54Y K65I	ND / ND / ND	0 of 9
G33Y S63F	5.00 / ND / ND	1 of 9 (3.16)
S31L V64F	1.54 / 1.59 / 1.68	1 of 9 (2.94)
S31R S35W	ND / ND / ND	1 of 9 (4.59)
T28F S35G F59C	4.76 / 3.30 / ND	1 of 9 (4.79)
S31C S53F G103A	ND / 2.92 / 3.95	1 of 9 (3.27)
T28W G55E T58C	ND / ND / ND	0 of 9
S31E V50S Y52S	7.08 / 5.10 / 4.72	7 of 9 (4.60)
D54H A102V T104W	ND / ND / ND	0 of 9
R56S T58V S107Y	0.58 / 1.49 / 1.06	0 of 9
A102M D106W S107V	0.84 / 1.14 / 1.18	2 of 9 (2.77)
T28D F59E V64L	1.35 / 1.81 / 1.16	0 of 9
F27H V64H A102P	ND / ND / ND	0 of 9
S53E R100T	ND / ND / ND	2 of 9 (2.29)
S35L R100G S107N	ND / 3.28 / 3.97	3 of 9 (4.04)
V50R S53G G55S	ND / 3.89 / 4.04	3 of 9 (3.83)
Y32I V50Q S107C	ND / ND / ND	0 of 9
G99V G103A	0.40 / 0.67 / 0.54	0 of 9
G26R T28D T58P	ND / ND / ND	0 of 9

Extract of 4 entries:

changes,"replicates, log10 nM",signal with controls
S31E V50S Y52S,7.08 / 5.10 / 4.72,7 of 9 (4.60)
D54H A102V T104W,ND / ND / ND,0 of 9
R56S T58V S107Y,0.58 / 1.49 / 1.06,0 of 9
F27M G55H F105M,ND / 2.88 / ND,1 of 9 (3.19)